The values that follow are results of earlier work, collected in publication PMC4220016, “The binding characteristics and orientation of a novel radioligand with distinct properties at 5-HT3A and 5-HT3AB receptors” (Neuropharmacology, 2014).

The subject of this data set is 5-HT3 receptor F226A. The conditions noted are these: ref Thompson et al., 2005; cited from earlier work.

As to `CN1C2CCCC1CC(NC(=O)c1nn(C)c3ccccc13)C2` (stereo not shown) [Granisetron], the “effect of mutation on binding affinity (in words)” value is given as “no effect”.
